Assay results reported in paper PMC6422423, “Constitutively active BRS3 is a genuinely orphan GPCR in placental mammals” (PLoS Biology, 2019).

Chains of the proteins cited; added tags and fusions are not shown.
UniProt P28336, whole entry, species assumed: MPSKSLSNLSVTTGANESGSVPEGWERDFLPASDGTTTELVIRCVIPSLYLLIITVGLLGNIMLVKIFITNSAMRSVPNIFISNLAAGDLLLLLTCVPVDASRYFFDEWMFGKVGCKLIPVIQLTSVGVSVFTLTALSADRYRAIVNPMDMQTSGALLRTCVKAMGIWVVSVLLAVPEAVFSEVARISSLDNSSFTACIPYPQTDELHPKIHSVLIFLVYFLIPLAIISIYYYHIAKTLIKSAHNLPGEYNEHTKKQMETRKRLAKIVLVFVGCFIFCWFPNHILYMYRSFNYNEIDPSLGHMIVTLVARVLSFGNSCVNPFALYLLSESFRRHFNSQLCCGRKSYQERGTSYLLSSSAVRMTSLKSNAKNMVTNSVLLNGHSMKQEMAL

Columns and labels:
NMBR = target: T1, NMBR (Homo sapiens, UniProt P28336); assay: Intracellular calcium assay; type: cell-based; conditions: 10 nM peptide, HEK293, Fluo8, NMBR
T1 construct: HA; expressed in transfected cells; host or cells: HEK293
Procedure: (§1) Intracellular calcium was measured using the non-wash calcium assay Fluo8 kit (ab112129, Abcam) according to the manufacturer’s instructions. Briefly, HEK293 cells were seeded in 24-well plates and were transfected with GRPR, NMBR, BRS3, or the empty vector plasmid pcDNA3.1-V5-His (300 ng) and incubated overnight at 37°C with 5% CO2. The next day, the cells were replated into a 96-well assay plate (black plate and clear bottom). After 12 h, growth media were aspirated, and calcium dye was added. Following incubation for 30 min at 37°C and 10 min at room temperature, GRP (10 nM) or NMB (10 nM) was added, and assay plates were placed into a fluorescence kinetic plate reader (Hamamatsu) immediately. The basal fluorescence intensity was recorded 15 times at 1 Hz for […]. The results were normalized to the average basal fluorescence intensity in ratio, and the peak response was used for the result calculation. Calcium fold was calculated using no stimulation data as standard value.

human BRS3 (hBRS3) = assay: Intracellular calcium assay (WT and mutants); type: cell-based; conditions: 10 nM peptide, HEK293, Fluo8, hBRS3
Procedure: as §1

mouse BRS3 (mBRS3) = assay: Intracellular calcium assay (WT and mutants); type: cell-based; conditions: 10 nM peptide, HEK293, Fluo8, mBRS3
Procedure: as §1

aardvark BRS3 (aBRS3) = assay: Intracellular calcium assay (WT and mutants); type: cell-based, Orycteropus afer; conditions: 10 nM peptide, HEK293, Fluo8, aBRS3
Procedure: as §1

chicken BRS3 (cBRS3) = assay: Intracellular calcium assay (WT and mutants); type: cell-based, Gallus gallus; conditions: 10 nM peptide, HEK293, Fluo8, cBRS3
Procedure: as §1

turtle BRS3 (tBRS3) = assay: Intracellular calcium assay (WT and mutants); type: cell-based, Chrysemys picta; conditions: 10 nM peptide, HEK293, Fluo8, tBRS3
Procedure: as §1

spotted gar BRS3 (sBRS3) = assay: Intracellular calcium assay (WT and mutants); type: cell-based, Lepisosteus oculatus; conditions: 10 nM peptide, HEK293, Fluo8, sBRS3
Procedure: as §1

neuromedin B [NMB]
Calcium fold (NMBR; replicate 1): 3.5176 fold
Calcium fold (NMBR; replicate 2): 3.9647 fold
Calcium fold (NMBR; replicate 3): 4.173 fold
Calcium fold (human BRS3 (hBRS3); replicate 1): 1.1617 fold
Calcium fold (human BRS3 (hBRS3); replicate 2): 1.0053 fold
Calcium fold (human BRS3 (hBRS3); replicate 3): 0.9127 fold
Calcium fold (mouse BRS3 (mBRS3); replicate 1): 1.1267 fold
Calcium fold (mouse BRS3 (mBRS3); replicate 2): 1.2985 fold
Calcium fold (mouse BRS3 (mBRS3); replicate 3): 0.9236 fold
Calcium fold (aardvark BRS3 (aBRS3); replicate 1): 1.1428 fold
Calcium fold (aardvark BRS3 (aBRS3); replicate 2): 1.1171 fold
Calcium fold (aardvark BRS3 (aBRS3); replicate 3): 1.219 fold
Calcium fold (chicken BRS3 (cBRS3); replicate 1): 3.3988 fold
Calcium fold (chicken BRS3 (cBRS3); replicate 2): 3.5333 fold
Calcium fold (chicken BRS3 (cBRS3); replicate 3): 3.9569 fold
Calcium fold (turtle BRS3 (tBRS3); replicate 1): 3.2567 fold
Calcium fold (turtle BRS3 (tBRS3); replicate 2): 3.7937 fold
Calcium fold (turtle BRS3 (tBRS3); replicate 3): 3.7127 fold
Calcium fold (spotted gar BRS3 (sBRS3); replicate 1): 3.5144 fold
Calcium fold (spotted gar BRS3 (sBRS3); replicate 2): 3.9449 fold
Calcium fold (spotted gar BRS3 (sBRS3); replicate 3): 4.3608 fold
